# Assay results published in patent US8778966B2, “Quinolinone derivatives as PARP and tank inhibitors” (Janssen Pharmaceutica, NV, priority 2007, dated 2014).
# Sequences of proteins named here, by UniProt entry; tags and fusion partners are left off.
# UniProt P09874, whole entry: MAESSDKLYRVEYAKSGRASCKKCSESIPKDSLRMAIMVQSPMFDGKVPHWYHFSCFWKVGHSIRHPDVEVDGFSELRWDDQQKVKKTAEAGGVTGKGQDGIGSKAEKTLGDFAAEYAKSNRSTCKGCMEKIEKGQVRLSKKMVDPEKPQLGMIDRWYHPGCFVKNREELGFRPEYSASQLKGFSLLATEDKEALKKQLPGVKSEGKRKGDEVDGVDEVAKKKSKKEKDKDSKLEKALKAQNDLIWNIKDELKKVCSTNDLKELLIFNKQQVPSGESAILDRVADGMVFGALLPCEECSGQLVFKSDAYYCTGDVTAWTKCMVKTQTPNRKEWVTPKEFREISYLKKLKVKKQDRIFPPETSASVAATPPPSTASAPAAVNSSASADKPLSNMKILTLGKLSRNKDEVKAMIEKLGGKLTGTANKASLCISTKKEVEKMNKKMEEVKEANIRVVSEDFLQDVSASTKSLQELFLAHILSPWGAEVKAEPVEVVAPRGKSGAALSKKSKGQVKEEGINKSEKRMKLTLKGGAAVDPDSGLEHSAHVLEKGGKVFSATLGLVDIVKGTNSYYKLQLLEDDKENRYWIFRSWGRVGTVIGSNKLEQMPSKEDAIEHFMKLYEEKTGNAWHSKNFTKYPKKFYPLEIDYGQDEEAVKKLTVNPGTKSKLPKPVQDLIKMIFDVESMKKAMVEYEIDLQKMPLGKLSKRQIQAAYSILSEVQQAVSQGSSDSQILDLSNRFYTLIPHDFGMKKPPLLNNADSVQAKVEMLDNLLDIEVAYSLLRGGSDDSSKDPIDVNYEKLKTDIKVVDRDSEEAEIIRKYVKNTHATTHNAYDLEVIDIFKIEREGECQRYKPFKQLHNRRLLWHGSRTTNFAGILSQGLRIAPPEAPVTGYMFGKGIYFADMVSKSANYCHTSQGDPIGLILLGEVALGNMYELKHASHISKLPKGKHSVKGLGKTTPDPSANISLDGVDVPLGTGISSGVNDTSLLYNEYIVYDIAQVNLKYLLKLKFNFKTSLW
# UniProt Q9H2K2, whole entry: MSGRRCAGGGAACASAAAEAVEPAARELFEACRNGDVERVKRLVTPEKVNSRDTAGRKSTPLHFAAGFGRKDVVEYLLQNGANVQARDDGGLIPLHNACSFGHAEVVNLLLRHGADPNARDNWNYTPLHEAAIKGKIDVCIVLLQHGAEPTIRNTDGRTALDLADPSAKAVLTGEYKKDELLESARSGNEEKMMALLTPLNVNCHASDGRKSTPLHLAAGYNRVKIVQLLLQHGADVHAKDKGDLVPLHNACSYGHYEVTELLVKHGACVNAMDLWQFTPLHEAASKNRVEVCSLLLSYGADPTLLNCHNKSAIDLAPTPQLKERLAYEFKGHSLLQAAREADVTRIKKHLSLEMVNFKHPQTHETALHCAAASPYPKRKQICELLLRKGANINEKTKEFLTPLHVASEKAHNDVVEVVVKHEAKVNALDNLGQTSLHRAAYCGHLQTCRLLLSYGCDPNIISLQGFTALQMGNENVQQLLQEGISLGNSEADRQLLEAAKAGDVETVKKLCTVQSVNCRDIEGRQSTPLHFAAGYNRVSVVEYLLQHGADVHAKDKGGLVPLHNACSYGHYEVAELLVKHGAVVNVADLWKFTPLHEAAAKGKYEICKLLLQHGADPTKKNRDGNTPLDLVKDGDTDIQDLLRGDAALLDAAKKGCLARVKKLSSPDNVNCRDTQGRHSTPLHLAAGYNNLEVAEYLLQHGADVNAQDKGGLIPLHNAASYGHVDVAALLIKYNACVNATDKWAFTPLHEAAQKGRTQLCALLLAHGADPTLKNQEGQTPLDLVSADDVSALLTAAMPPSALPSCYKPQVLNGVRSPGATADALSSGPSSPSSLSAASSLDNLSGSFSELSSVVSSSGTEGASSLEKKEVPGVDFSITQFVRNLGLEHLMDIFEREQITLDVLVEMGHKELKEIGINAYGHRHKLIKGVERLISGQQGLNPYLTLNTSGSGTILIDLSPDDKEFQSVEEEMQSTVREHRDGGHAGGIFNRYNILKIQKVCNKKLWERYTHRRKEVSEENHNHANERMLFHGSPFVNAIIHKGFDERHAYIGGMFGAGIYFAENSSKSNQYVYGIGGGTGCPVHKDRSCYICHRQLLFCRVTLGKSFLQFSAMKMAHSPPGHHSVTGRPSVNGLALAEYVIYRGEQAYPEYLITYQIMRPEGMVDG
# Experiments:
# Human PARP-1 enzyme = Human PARP-1 enzyme (Homo sapiens, UniProt P09874); test: In vitro Scintillation Proximity Assay (SPA) for PARP-1 inhibitory activity
# Procedure: Compounds of the present invention were tested in an in vitro assay based on SPA technology (proprietary to GE healthcare).
# In principle, the assay relies upon the well established SPA technology for the detection of poly(ADP-ribosyl)ation of biotinylated target proteins, i.e histones. This ribosylation is induced using nicked DNA activated PARP-1 enzyme and [^3H]-nicotinamide adenine dinucleotide ([^3H]-NAD^+) as ADP-ribosyl donor.
# Histones (type II-A, supplier: Sigma) were biotinylated using the biotinylation kit of Amersham and stored aliquoted at −20° C. A stock solution of 100 mg/ml SPA poly(vinyl toluene) (PVT) beads (supplier: Amersham) was made in PBS. A stock solution of 61.6 nM [^3H]-NAD^+ was made by adding [^3H]-NAD^+ (0.1 mCi/ml, supplier: Perkin Elmer) to incubation buffer (50 mM Tris/HCl, pH 8; 0.2 mM DTT; 4 mM MgCl2). A solution of 4 mM NAD^+ (supplier: Sigma) was made. Human PARP-1 enzyme was obtained from Trevigen. Biotinylated histones and PVT-SPA beads were mixed and pre-incubated for 30 min. at room temperature. PARP-1 enzyme (concentration was lot dependent) was mixed with the nicked DNA and the mixture was pre-incubated for 30 min. at 4° C. Equal parts of this histones/PVT-SPA beads solution and PARP-1 enzyme/DNA solution were mixed and 75 μl of this mixture together with 1 μl of compound in DMSO and 25 μl of [^3H]-NAD^+ was added per well into a 96-well microtiterplate. The final concentrations in the incubation mixture were 2 μg/ml for the biotinylated histones, 2 mg/ml for the PVT-SPA beads, 0.25 μg/ml for the nicked DNA and between 0.1-0.2 μg/ml for the PARP-1 enzyme. […] The beads were sedimented by centrifugation (10 min, 800 rpm). and plates transferred to a TopCountNXT™ (Packard) for scintillation counting, values were expressed as counts per minute (cpm). […] For each sample, the amount of cpm was expressed as a percentage of the mean cpm value of the controls. […] Herein the effects of test compounds are expressed as pIC50 (the negative log value of the IC50-value). […]
# TANK-2 enzyme = TANK-2 enzyme (Homo sapiens, UniProt Q9H2K2); test: In vitro Scintillation Proximity Assay (SPA) for TANK-2 inhibitory activity
# Procedure: Compounds of the present invention were tested in an in vitro assay based on SPA technology with Ni Flash plates (96 or 384 well). In principle, the assay relies upon SPA technology for the detection of auto-poly(ADP-ribosyl)ation of TANK-2 protein using [^3H]-nicotinamide adenine dinucleotide ([^3H]-NAD^+) as ADP-ribosyl donor.
# A stock solution of 100 nM [3H]-NAD^+/NAD (0.1 mCi/ml, supplier: Perkin Elmer) and 0.25 μM NAD (Sigma) was made in assay buffer (60 mM Tris/HCl, pH 7.4; 0.9 mM DTT; 6 mM MgCl2). The TANK-2 enzyme was produced as described in EP1238063. 60 μl of assay buffer, together with 1 μl of compound in DMSO, 20 μl of [^3H]-NAD^+/NAD and 20 μl of TANK-2 enzyme (final concentration 8 μg/ml) was added per well into a 96-well Ni-coated flash plate (Perkin Elmer). After incubation of the mixture for 120 min. at room temperature, the reaction was terminated by adding 60 μl of stopsolution (42.6 mg NAD in 6 ml H2O). The plates were covered with a plate sealer and placed in a TopCountNXT™ (Packard) for scintillation counting. Values were expressed as counts per minute (cpm). For each experiment, controls (containing TANK-2 enzyme and DMSO without compound), a blank incubation (containing DMSO but no TANK-2 enzyme or compound) and samples (containing TANK-2 enzyme and compound dissolved in DMSO) were run in parallel. All compounds tested were dissolved and eventually further diluted in DMSO. In first instance, compounds were tested at a concentration of 10^−5M. […] In each test, the blank value was subtracted from both the control and the sample values. The control sample represented maximal TANK-2 enzyme activity. For each sample, the amount of cpm was expressed as a percentage of the mean cpm value of the controls. When appropriate, IC50-values (concentration of the drug, needed to reduce the TANK-2 enzyme activity to 50% of the control) were computed using linear interpolation between the experimental points just above and below the 50% level. Herein the effects of test compounds are expressed as pIC50 (the negative log value of the IC50-value). […]
in vitro SPA assay PARP-1 pIC50 (Human PARP-1 enzyme),in vitro SPA assay TANK-2 pIC50 (TANK-2 enzyme),SMILES
7.3,6.8,CCc1cc2ccc(C(C)(C#N)Cc3cccc([N+](=O)[O-])c3)cc2[nH]c1=O (stereo not drawn)
7.7,6.2,"CCc1cc2ccc(C(C)(C#N)C3CCc4c(Cl)ccnc43)cc2[nH]c1=O (single isomer, unassigned) [246]"
7.5,5.6,"CCc1cc2ccc(C(C)(C#N)C3CCc4c(Cl)ccnc43)cc2[nH]c1=O (single isomer, unassigned) [247]"
